Measured values as given in patent US9579408B2, “PET/SPECT agents for applications in biomedical imaging” (Washington University, priority 2011, dated 2017).
“Also recorded” adds a separate entry of the source.

What was measured:
Assay type in all cases: cell-based, human
Settings in all cases: presence of LY335979 (1 μM)
MDR KB-8-5 (+Pgp) cells = assay: Cell transport study, cellular accumulation in MDR KB-8-5 cells
KB-8-5-11 (++Pgp) cells = assay: Cell transport study, cellular accumulation in KB-8-5-11 cells
MCF-7/MDR1 (+Pgp) cells = assay: Cell transport study, cellular accumulation in stably transfected MCF-7/MDR1 cells

With `CC(C)Oc1cccc2c1[O][67Ga+][O]c1c(cccc1OC(C)C)C=NCC(C)(C)CNCCNCC(C)(C)CN=C2.[I-]` [Agent 1A, [ENBDMP-3-isopropoxy-PI-^67Ga]^+] the “effect of Pgp inhibitor on cellular accumulation” value (“effect of Pgp inhibitor” for short) (MDR KB-8-5 (+Pgp) cells) was “enhanced accumulation; also recorded: induced accumulation”, the “effect of Pgp inhibitor” value (KB-8-5-11 (++Pgp) cells) was “enhanced accumulation; also recorded: induced accumulation” and the “effect of Pgp inhibitor” value (MCF-7/MDR1 (+Pgp) cells) was “enhanced accumulation; also recorded: induced accumulation”.
